This data set in a line: Pharmacokinetic comparison experiment in rats, single subcutaneous injection. Format: in vivo. To be noted: male rats, plasma. The procedure:
A single subcutaneous injection was performed with a dose of 0.02 mg/kg; blood collection was performed by tail clipping, and the blood collection time points were: 0 h, 15 min, 30 min, 1 h, 2 h, 3 h, 4 h, 6 h, 8 h, 24 h, 48 h and 72 h. The compound concentration in plasma was determined by LC-MS/MS, all data were collected and exported by Unifi 1.9.3 software, and Excel software was used for data calculation. A non-compartmental model of DAS 3.0 software was used to calculate the pharmacokinetic parameters of rats after administration.

For Semaglutide, the “AUC(0-t), Mean” value (n = 3, single SC 0.02 mg/kg, LC-MS/MS, non-compartmental) was found to be 2244.71 ng·h/mL. In addition, under “single SC 0.02 mg/kg”, the “AUC(0-∞), Mean” value was determined as 2320.02 ng·h/mL; the “AUMC(0-t), Mean” value is on record as 54463.48 h * h * μg/L; the “AUMC(0-∞), Mean” value is 61264.52 h * h * μg/L; the “CLz/F, Mean” value came out at 0.15 mL/min/kg. For the setting “single SC 0.02 mg/kg”, the “Cmax, Mean” value came out at 58.30 ng/mL; the “R_AUC(t/∞), Mean” value was 96.77%; the “Tmax, Mean” value amounted to 18.00 h; the “t½z, Mean” value is reported as 12.50 h.

Values taken from patent US12590134B2, “GLP-1 agonist polypeptide compound and salt thereof, synthesis method therefor and use thereof” (Sinopep-Allsino Biopharmaceutical Co., Ltd., priority 2020, dated 2026).
